In publication PMC5397608 (Journal of Molecular Biology, 2017):
Positions count from the first letter of the chain named.

Sequences of proteins named here, by UniProt entry; tags and fusion partners are left off. A line that says so, or that is headed by a name, gives the form on record, which may keep a tag or linker.
UniProt P15692, other isoform, or with tags, fused parts or gaps: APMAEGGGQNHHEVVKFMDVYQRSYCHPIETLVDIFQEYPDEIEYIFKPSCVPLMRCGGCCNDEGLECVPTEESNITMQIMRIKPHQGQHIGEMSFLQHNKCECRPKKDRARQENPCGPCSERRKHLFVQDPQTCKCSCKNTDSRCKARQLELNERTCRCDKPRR

B1: mAb2_WT (antibody, V domains shown)
VH: EVQLVESGGGLVQPGGSLRLSCAASGFTISDYWIHWVRQAPGKGLEWVAGITPAGGYTYYADSVKGRFTISADTSKNTAYLQMNSLRAEDTAVYYCARFVFFLPYAMDYWGQGTLVTVSS
VL: DIQMTQSPSSLSASVGDRVTITCRASQDVSTAVAWYQQKPGKAPKLLIYSASFLYSGVPSRFSGSGSGTDFTLTISSLQPEDFATYYCQQSYTTPPTFGQGTKVEIK
notes: heavy chain variable region of mAb2; PDB 2FJF is the crystal structure of the antibody itself; constant regions of an IgG1 isotype, already in the expression vector; light chain variable region of mAb2; light chain constant region from the expression vector; IgG1; for the comparison with the mutants the wild type was made alongside them in CHO K1; also called wild-type mAb2; antibody 2; source: …
B2: mAb2_SL52R (antibody, V domains shown)
VH: B1 VH
VL: B1 VL with S52R
notes: as the heavy chain variable region of m1 (PDB 2FJF); constant regions of an IgG1 isotype, already in the expression vector; as the light chain variable region of m1 (PDB 2FJF), with the stated change; light chain constant region from the expression vector; IgG1; source: CHO K1, transiently transfected, purified (protein A)

Target: T1, recombinant human Vascular Endothelial Growth Factor a (Homo sapiens, UniProt P15692-4, fluorescently labeled with Alexa-647)
T1 construct: human VEGFa, UniProt ID P15692, aa 27-191 as printed; the isoform is my reading of the limits 27-191; also called rhVEGFa; recombinant human VEGFa; source: recombinant
Experiment: MST; Alexa-647-labelled rhVEGFa constant at 1 nM in solution, mAb2 WT or variants in varying concentrations; 295 K; 25 mM sodium citrate pH 6.0, 125 mM NaCl, 0.05% Tween 20; triplicates; NanoTemper Monolith NT.115
Conditions: both partners purified

Row | Kd [nM] | Binder
1 | 3.7 ± 1.1 | B1
2 | 3.2 ± 1.8 | B2
